High-throughput results deposited in PubChem by National Center for Advancing Translational Sciences (NCATS).
miR-21 reporter: raises the signal of a miR-21 reporter | HeLa miR-21 FLuc reporter, luciferase, 48 h | Potency, µM (doses to about 38.3 µM) | 340,000 tested, under 10 active | AID 2288; active = well fitted rising curve with a large enough effect; inconclusive = small, poorly fitted or top-dose-only effect; inactive = no such curve, though single readings can be large or run the other way;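 also: miR-21 action dims this reporter so a rising signal means less miR-21 action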
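Compounds were titrated across several concentrations (up to approximately 40 uM) and incubated 48 hours with HeLa miR-21-FLuc reporter cells (miR-21 target sequence downstream of FLuc, endogenous miR-21). Readout was firefly luciferase luminescence after lytic detection reagent.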
TDP1 cell noCPT: qHTS for Inhibitors of human tyrosyl-DNA phosphodiesterase 1 (TDP1): qHTS in cells in absence of CPT. DT40 Tdp1-/- hTDP1 cells, no CPT, ATP luminescence, 48 h. Potency, µM (highest dose often 46.2 µM), usual class: inhibitors. hit rate 15% among 420,000. AID 686978, 2013; note: nearly all actives have a fitted effect of over 55% in size
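Readout: luminescence from CellTiter-Glo after 30 min in the dark at RT. Cells: DT40 Tdp1-/- with stable hTDP1, 400/well. Exposure: compounds alone, ≥48 hr, 37 °C.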
TDP1 inh: TDP1 (human) enzyme inhibition. Q9NUW8. recombinant TDP1, AlphaScreen DNA substrate cleavage. Potency, µM (top dose mostly 130 µM), actives largely listed as inhibitors. hit rate 0.28% among 350,000. AID 485290; note: nearly all actives have a fitted effect of over 40% in size
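Compounds were preincubated with Tdp1 (1 nM final) for 15 min at room temperature before substrate (15 nM final) started a 5 min reaction; beads (10 ug/ml final) were then added for 10 min before AlphaScreen detection.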
TDP1 cell CPT: DT40-hTDP1 cell growth loss with CPT. chicken DT40 Tdp1-/-;hTDP1 cells + 20 nM CPT, ATP luminescence, 48 h. Potency, µM (titrated, usually from 46.2 µM), hits mostly inhibitors. hit rate 12% among 420,000. AID 686979; note: nearly all actives have a fitted effect of over 55% in size
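Cell growth measured by CellTiter-Glo luminescence after a minimum 48 h, 37 C compound exposure with 20 nM CPT in Tdp1-knockout DT40 cells stably expressing hTDP1, seeded 400/well; qHTS titration format.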
uPA surface inh: blocks generation of uPA at the cell surface; cell surface uPA generation assay, qHTS; Potency, µM (highest dose often 38.3 µM), hits mostly inhibitors; hit rate 0.31% among 330,000; AID 540303; active = well fitted inhibition curve with a large enough effect; inconclusive = small, poorly fitted or top-dose-only effect; inactive = no such curve, though single readings can be large or run the other way; tested in mouse RAW 264.7 cells; note: nearly all actives have a fitted effect of over 55% in size
Numbers stand for hits. A selection: hits, their analogues and other compounds. The true share with any hit is near 16%. Unless noted, calls come from the whole dose curve; as a rule, active = well fitted curve in the direction sought with a large enough effect; inconclusive = small, poorly fitted or top-dose-only effect, or another doubt; inactive = no such curve, though single readings can be large; an effect the other way counts as inactive or inconclusive.

`CCOC(=O)N1CCC(NC(=O)c2cnn(-c3cccc(F)c3)c2-n2cccc2)CC1` gave miR-21 reporter inactive, TDP1 cell noCPT 18µM, TDP1 inh inactive and TDP1 cell CPT inconclusive.
`CCn1ncc(CN2CCC(C(=O)Nc3cccc(-c4cccc(F)c4)c3)CC2)c1C` gave miR-21 reporter inactive, TDP1 cell noCPT 6.5µM, TDP1 inh inactive, TDP1 cell CPT inconclusive and uPA surface inh inactive.
`Cc1cc(C)n(CCCN2CCC(C(=O)Nc3cccc(-c4cccc(F)c4)c3)CC2)n1` gave miR-21 reporter inactive, TDP1 cell noCPT 18µM, TDP1 inh inactive, TDP1 cell CPT inconclusive and uPA surface inh inconclusive.
Screening C/C(CC(=O)Nc1ccc(OCc2ccccc2)cc1)=N\NC(=O)C(=O)Nc1ccccc1C returned miR-21 reporter inactive, TDP1 cell noCPT inconclusive, TDP1 inh inactive, TDP1 cell CPT inconclusive and uPA surface inh inactive.
Screening Clc1ccc(OCc2nc(-c3ccc(-n4cccc4)cc3)no2)cc1 returned miR-21 reporter inactive, TDP1 cell noCPT inactive, TDP1 inh inactive and TDP1 cell CPT inactive.
`Cc1c(C(=O)N2CCN(Cc3ccc4c(c3)OCO4)CC2)sc2ncnc(N3CCN(c4ccccc4F)CC3)c12` gave miR-21 reporter inactive, TDP1 cell noCPT 8.2µM, TDP1 inh inactive, TDP1 cell CPT 18µM and uPA surface inh inactive.
Cc1c(C(=O)N2CCN(Cc3ccc4c(c3)OCO4)CC2)sc2ncnc(N3CCN(c4ccccc4)CC3)c12 was read as miR-21 reporter inactive, TDP1 cell noCPT 4.6µM, TDP1 inh inactive, TDP1 cell CPT inconclusive and uPA surface inh inconclusive.
Screening CC(C)(C)c1ccc(Oc2nc3ccccn3c(=O)c2/C=C(\C#N)c2nc3ccccc3s2)cc1 returned miR-21 reporter inactive, TDP1 cell noCPT inconclusive, TDP1 inh inactive and TDP1 cell CPT inconclusive.
For Cc1cccc(Oc2nc3ccccn3c(=O)c2/C=C(\C#N)c2nc3ccccc3s2)c1C the results were miR-21 reporter inactive, TDP1 cell noCPT 4.6µM, TDP1 inh inactive and TDP1 cell CPT 21µM.
Screening CCOC(=O)c1sc(NC(=O)c2cccc(S(=O)(=O)N3CCc4ccccc43)c2)c(C#N)c1C returned miR-21 reporter inactive, TDP1 cell noCPT 2.9µM, TDP1 cell CPT 5.8µM and uPA surface inh inactive.
Screening CCC(CC)c1nnc(NC(=O)c2cccc(S(=O)(=O)N3CCc4ccccc43)c2)s1 returned miR-21 reporter inactive, TDP1 cell noCPT inconclusive, TDP1 inh inactive, TDP1 cell CPT inconclusive and uPA surface inh inactive.
`O=C(NCCCN1CCOCC1)c1cccc(S(=O)(=O)N2CCc3ccccc32)c1` gave TDP1 cell noCPT 23µM and TDP1 cell CPT inconclusive.
CN(C)C(=O)c1ccc(NC(=O)c2cccc(S(=O)(=O)N3CCCc4ccccc43)c2)cc1 was read as TDP1 cell noCPT 16µM, TDP1 cell CPT 23µM and uPA surface inh inactive.
For O=C(Nc1cccnc1)c1cccc(S(=O)(=O)N2CCc3ccccc32)c1 the results were miR-21 reporter inactive, TDP1 cell noCPT inconclusive, TDP1 inh inactive, TDP1 cell CPT 26µM and uPA surface inh inactive.
O=C(NCCCN1CCOCC1)c1cccc(S(=O)(=O)N2CCOCC2)c1 was read as TDP1 cell noCPT inactive, TDP1 inh inactive, TDP1 cell CPT inactive and uPA surface inh inactive.
O=C(c1ccccc1NS(=O)(=O)c1ccc(F)cc1)N1CCOCC1 was read as miR-21 reporter inactive, TDP1 cell noCPT inactive, TDP1 inh inactive, TDP1 cell CPT inactive and uPA surface inh inactive.
Screening O=c1oc(/C=C/c2ccccc2)nc2sc3c(c12)CCC3 returned miR-21 reporter inactive, TDP1 cell noCPT inactive, TDP1 inh inactive, TDP1 cell CPT inactive and uPA surface inh inactive.
Screening COc1c(O)ccc(/C=N/NC(=O)c2ccc3c(c2)OCCO3)c1[N+](=O)[O-] returned miR-21 reporter inactive, TDP1 cell noCPT inactive, TDP1 inh inactive, TDP1 cell CPT inactive and uPA surface inh inactive.
`O=C(O)c1cccc(NC(=O)c2cccc(S(=O)(=O)N3CCc4ccccc43)c2)c1` gave miR-21 reporter inactive, TDP1 cell noCPT inactive, TDP1 cell CPT inactive and uPA surface inh inactive.
Screening O=C(Nc1ccncc1)c1cccc(S(=O)(=O)N2CCc3ccccc32)c1 returned TDP1 cell noCPT 6.5µM, TDP1 inh inactive, TDP1 cell CPT 5.8µM and uPA surface inh inactive.
For O=C(Nc1nc2c(s1)CCCC2)c1cccc(S(=O)(=O)N2CCCc3ccccc32)c1 the results were miR-21 reporter inactive, TDP1 cell noCPT 23µM, TDP1 inh inactive, TDP1 cell CPT 26µM and uPA surface inh inactive.
For COc1ccc(C(=O)Cn2c(C(C)=O)nc3ccccc32)cc1 the results were TDP1 cell noCPT 7.3µM, TDP1 cell CPT 15µM and uPA surface inh inactive.
Cc1ccc(C(=O)Cn2c(=N)n(N)c3ccccc32)cc1 was read as miR-21 reporter inactive, TDP1 cell noCPT inconclusive, TDP1 inh inactive, TDP1 cell CPT inconclusive and uPA surface inh inactive.
Screening CCCCn1c(=N)n(CC(=O)c2ccc(OC)cc2)c2ccccc21 returned miR-21 reporter inactive and TDP1 inh inactive.
`Cn1c(=N)n(CC(=O)c2ccc(Cl)c(Cl)c2)c2ccccc21` gave miR-21 reporter inactive, TDP1 cell noCPT 16µM, TDP1 cell CPT 13µM and uPA surface inh inactive.
COc1ccc(C(=O)Cn2c(=N)n(C)c3ccccc32)cc1 was read as miR-21 reporter inactive, TDP1 cell noCPT 21µM, TDP1 inh inactive, TDP1 cell CPT inconclusive and uPA surface inh inactive.
`CCn1c(=N)n(CC(=O)c2ccc(OC)c(OC)c2)c2ccccc21` gave miR-21 reporter inactive, TDP1 cell noCPT inconclusive, TDP1 inh inactive and TDP1 cell CPT inconclusive.
For COc1ccc(/C=C/C(=O)c2nc3ccccc3n2CC(=O)c2ccc(OC)cc2)cc1 the results were miR-21 reporter inactive, TDP1 cell noCPT inactive, TDP1 inh inactive, TDP1 cell CPT inactive and uPA surface inh inactive.
CCN(CC)CCn1c(=N)n(CC(=O)c2ccc(C)cc2)c2ccccc21 was read as miR-21 reporter inactive, TDP1 cell noCPT 13µM, TDP1 cell CPT 16µM and uPA surface inh inactive.
Screening Cc1nc2sc(C(N)=O)c(N)c2c(C)c1CC(=O)c1ccccc1 returned miR-21 reporter inactive, TDP1 cell noCPT inconclusive, TDP1 inh inactive, TDP1 cell CPT inconclusive and uPA surface inh inactive.
`COCCN(CC1CCCN(C2Cc3ccccc3C2)C1)C(=O)c1ccc(C(C)=O)cc1` (configuration not stated) gave miR-21 reporter inactive, TDP1 cell noCPT inconclusive, TDP1 inh inactive, TDP1 cell CPT inactive and uPA surface inh inactive.
`Cn1c(=N)n(CC(=O)C(C)(C)C)c2ccccc21` gave miR-21 reporter inactive, TDP1 cell noCPT inactive, TDP1 inh inactive, TDP1 cell CPT inconclusive and uPA surface inh inactive.
`Cn1c(=N)n(CC(=O)c2ccccc2)c2ccccc21` gave miR-21 reporter inactive, TDP1 cell noCPT 18µM, TDP1 inh inactive, TDP1 cell CPT inconclusive and uPA surface inh inactive.
